Test system: UDP-glucuronosyltransferases (UGT), rat ileum microsomes
Experiment: Glucuronidation of naringenin in rat ileum microsomes
Details: 10 μM naringenin, vs control

SMILES: CN(C)C(=O)CCSC(SCCC(=O)O)c1cccc(/C=C/c2ccc3ccc(Cl)cc3n2)c1 (stereo not shown) [MK-571]
- effect on glucuronidation rates of naringenin, inhibitors used simultaneously: decreased significantly
